Measurements taken from ChEMBL document CHEMBL1121737, “Synthesis and evaluation of some stable multisubstrate adducts as specific inhibitors of spermidine synthase” (J Med Chem, 1981).

Experiments:
[1] = test system: spermine synthase (Rattus norvegicus); assay: Inhibition of spermine synthase at 25 uM concentration of the compound; values are per cent of control
[2] = test system: spermine synthase (Rattus norvegicus); assay: Inhibition of spermine synthase at 100 uM concentration of the compound; values are per cent of control

- residual activity [1]: 89%
- residual activity [2]: 78%
SMILES: CCCCCC(CC)SC[C@H]1OC(n2cnc3c(N)ncnc32)[C@H](O)[C@@H]1O (some centres not stated)
